Reference: patent publication US11331020B2 (TRUSTEES OF BOSTON UNIVERSITY, priority 2020, dated 2022)

Tests used:
[1] = Activity of NicA2 mutants versus wild type NicA2; format: biochemical; details: for oxidation activity of NicA2 mutant: compared to wild type and other NicA2 mutants
[2] = Specificity of NicA2(N462H) compared to CYP2B6; format: biochemical; details: FIG. 27

B1: NicA2(N462H) (protein, listed as Pseudomonas putida)
chain: MSDKTKTNEGFSRRSFIGSAAVVTAGVAGLGAIDAASATQKTNRASTVKGGFDYDVVVVGGGFAGATAARECGLQGYRTLLLEARSRLGGRTFTSRFAGQEIEFGGAWVHWLQPHVWAEMQRYGLGVVEDPLTNLDKTLIMYNDGSVESISPDEFGKNIRIAFEKLCHDAWEVFPRPHEPMFTERARELDKSSVLDRIKTLGLSRLQQAQINSYMALYAGETTDKFGLPGVLKLFACGGWNYDAFMDTETHYRIQGGTIGLINAMLTDSGAEVRMSVPVTAVEQVNGGVKIKTDDDEIITAGVVVMTVPLNTYKHIGFTPALSKGKQRFIKEGQLSKGAKLYVHVKQNLGRVFAFADEQQPLNWVQTHDYSDELGTILSITIARKETIDVNDRDAVTREVQKMFPGVEVLGTAAYDWTADPFSLGAWAAYGVGQLSRLKDLQAAEGRILFAGAETSNGWHAHIDGAVESGLRAGREVKQLLS
- kobs, kred and Kd of NicA2 mutant ([1]; FIG. 11D, versus WT): improved kobs (how fast oxygen is entering) and kred rates (how fast FAD is reduced) and Kd (ligand binds more tightly)
- current and sensitivity to nicotine of NicA2 mutant ([1]; compared to N462V, N462Y/W427Y, A107R): produced more current, was more sensitive to nicotine
- oxidation activity of NicA2 mutant [1]: highest oxidation activity
- oxidation activity of NicA2 mutant ([1]; listed as N462H): increased oxidative activity
- analytes degraded [2]: degraded only nicotine
